{
  "source": "patent US7994211B2",
  "about": "“Bicyclo[2.2.1]hept-7-ylamine derivatives and their uses” (Argenta Discovery Limited, priority 2005, dated 2011)",
  "target": "human muscarinic receptors (M3) (Homo sapiens, UniProt P20309)",
  "experiment": "Muscarinic receptor radioligand binding assay ([3H]-NMS)",
  "data": [
    {"smiles": "CN(CCCCCCCCCNC[C@H](O)c1ccc(O)c2[nH]c(=O)ccc12)[C@H]1[C@H]2CC[C@@H]1[C@H](OC(=O)C(O)(c1cccs1)c1cccs1)C2", "note": "[Example 41, Hydroxy-di-thiophen-2-yl-acetic acid (1S,2R,4S,7S)-7-({9-[(R)-2-hydroxy-2-(8-hydroxy-2-oxo-1,2-dihydro-quinolin-5-yl)-ethylamino]-nonyl}-methyl-amino)-bicyclo[2.2.1]hept-2-yl ester]", "values": [
      {"measurement": "Ki", "value": "< 1", "unit": "nM"}
    ]}
  ]
}
